This passage reports Ratio Ki results from ChEMBL document CHEMBL4229498 (Bioorg Med Chem, 2018).

For this assay, the species on record is Homo sapiens. Description: Selectivity ratio of Ki for human CB2 receptor to Ki for human CB1 receptor.
Turning to `CS(=O)(=O)N1CCN(c2ncnc3c2nc(-c2ccccc2Cl)n3-c2ccc(Cl)cc2)CC1`, the Ratio Ki was 68.
For `O=C(C1COc2ccccc2O1)N1CCN(c2ncnc3c2nc(-c2ccccc2Cl)n3-c2ccc(Cl)cc2)CC1` (stereo unspecified) the value was 122; for `O=C(Nc1ccc(OC(F)F)nc1)N1CCN(c2ncnc3c2nc(-c2ccccc2Cl)n3-c2ccc(Cl)cc2)CC1`, over 1000.
Take `O=C(CN1CCCCC1)N1CCN(c2ncnc3c2nc(-c2ccccc2Cl)n3-c2ccc(Cl)cc2)CC1`: the Ratio Ki worked out at 238.
For `O=C(NC1(C(F)(F)F)CCCC1)N1CCN(c2ncnc3c2nc(-c2ccccc2Cl)n3-c2ccc(Cl)cc2)CC1` the value was 54; for `O=C(N1CCN(c2ncnc3c2nc(-c2ccccc2Cl)n3-c2ccc(Cl)cc2)CC1)C(F)(F)F`, 130.
For `O=S(=O)(CC1CCCCC1)N1CCN(c2ncnc3c2nc(-c2ccccc2Cl)n3-c2ccc(Cl)cc2)CC1` the value was 54; for `O=S(=O)(CCC(F)(F)F)N1CCN(c2ncnc3c2nc(-c2ccccc2Cl)n3-c2ccc(Cl)cc2)CC1`, 420.
For `O=C(Nc1ccc(F)cc1)N1CCN(c2ncnc3c2nc(-c2ccccc2Cl)n3-c2ccc(Cl)cc2)CC1` the value was 110.
Regarding `O=S(=O)(C1CC1)N1CCN(c2ncnc3c2nc(-c2ccccc2Cl)n3-c2ccc(Cl)cc2)CC1`, the Ratio Ki was 460.
For `O=C(Nc1ccccn1)N1CCN(c2ncnc3c2nc(-c2ccccc2Cl)n3-c2ccc(Cl)cc2)CC1` the value was 1200; for `CCCS(=O)(=O)N1CCN(c2ncnc3c2nc(-c2ccccc2Cl)n3-c2ccc(Cl)cc2)CC1`, 710; for `CC(C(=O)N1CCN(c2ncnc3c2nc(-c2ccccc2Cl)n3-c2ccc(Cl)cc2)CC1)c1ccccc1` (stereo unspecified), 190.
Consider `CC(C)S(=O)(=O)N1CCN(c2ncnc3c2nc(-c2ccccc2Cl)n3-c2ccc(Cl)cc2)CC1`, for which the Ratio Ki was determined as 700.
For `CC(C)(C)OC(=O)N1CCN(c2ncnc3c2nc(-c2ccccc2Cl)n3-c2ccc(Cl)cc2)CC1` the value was 680; for `CCS(=O)(=O)N1CCN(c2ncnc3c2nc(-c2ccccc2Cl)n3-c2ccc(Cl)cc2)CC1`, 330; for `O=C(Nc1ccc(F)c(F)c1)N1CCN(c2ncnc3c2nc(-c2ccccc2Cl)n3-c2ccc(Cl)cc2)CC1`, 840.
For `O=C(OC1CCC1)N1CCN(c2ncnc3c2nc(-c2ccccc2Cl)n3-c2ccc(Cl)cc2)CC1` the value was 1100; for `CC(C)(C)CC(=O)N1CCN(c2ncnc3c2nc(-c2ccccc2Cl)n3-c2ccc(Cl)cc2)CC1`, over 2500; for `O=C(NC1CCCCC1)N1CCN(c2ncnc3c2nc(-c2ccccc2Cl)n3-c2ccc(Cl)cc2)CC1`, 440.
Consider `O=C(C1CCSCC1)N1CCN(c2ncnc3c2nc(-c2ccccc2Cl)n3-c2ccc(Cl)cc2)CC1`, for which the Ratio Ki is 265.
For `CC(C)CS(=O)(=O)N1CCN(c2ncnc3c2nc(-c2ccccc2Cl)n3-c2ccc(Cl)cc2)CC1` the value was 1400.
For the molecule `O=C(Nc1ccccc1)N1CCN(c2ncnc3c2nc(-c2ccccc2Cl)n3-c2ccc(Cl)cc2)CC1`, the Ratio Ki came to 400.
For `O=S(=O)(CC1CCOCC1)N1CCN(c2ncnc3c2nc(-c2ccccc2Cl)n3-c2ccc(Cl)cc2)CC1` the value was 1000; for `O=C(CC1CCOC1)N1CCN(c2ncnc3c2nc(-c2ccccc2Cl)n3-c2ccc(Cl)cc2)CC1` (stereo unspecified), 375.
For `O=C(NCC1CCCCC1)N1CCN(c2ncnc3c2nc(-c2ccccc2Cl)n3-c2ccc(Cl)cc2)CC1` the value was 17.
For `O=C(Nc1ccc(F)cc1F)N1CCN(c2ncnc3c2nc(-c2ccccc2Cl)n3-c2ccc(Cl)cc2)CC1` the value was 640; for `CCCCC(=O)N1CCN(c2ncnc3c2nc(-c2ccccc2Cl)n3-c2ccc(Cl)cc2)CC1`, 67.
In the case of `O=C(NC1CCCC1)N1CCN(c2ncnc3c2nc(-c2ccccc2Cl)n3-c2ccc(Cl)cc2)CC1`, the Ratio Ki was 150.
For `O=C(Nc1ccccc1F)N1CCN(c2ncnc3c2nc(-c2ccccc2Cl)n3-c2ccc(Cl)cc2)CC1` the value was 220; for `CCCCS(=O)(=O)N1CCN(c2ncnc3c2nc(-c2ccccc2Cl)n3-c2ccc(Cl)cc2)CC1`, 830.
